## Cyclic peptide permeability, from CycPeptMPDB

Source: CycPeptMPDB (Li et al. 2023), which took these values from Townsend et al. 2020, doi:10.26434/chemrxiv.13335941.v1.

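Lipid, pH, incubation time, direction and concentration are not recorded in the data file. The list need not hold all peptides of the study. Entries at the database's floor value (log10 P of -10) are not listed.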

PAMPA measures passive passage through an artificial lipid membrane.
Permeability is given as log10 of P in cm/s; higher (less negative) is more permeable.

- CCCN1CC(=O)N[C@@H](CC(C)C)C(=O)N(C)[C@H](CC(C)C)C(=O)N2CCC[C@H]2C(=O)N(C)[C@H](CC(C)C)C(=O)N[C@@H](Cc2ccccc2)C(=O)N2CCC[C@H]2C1=O: PAMPA -4.91 (log10 cm/s)
- CC(C)C[C@@H]1NC(=O)[C@@H]2CCCN2C(=O)C[C@H](Cc2ccccc2)NC(=O)CN(Cc2ccccc2)C(=O)C[C@H](Cc2ccccc2)NC(=O)[C@@H]2CCCN2C(=O)[C@H](Cc2ccccc2)NC1=O: PAMPA -6.20 (log10 cm/s)
- CCCN1CC(=O)N(C)[C@@H](CC(C)C)C(=O)N[C@H](CC(C)C)C(=O)N2CCC[C@@H]2C(=O)N(Cc2ccccc2)CC(=O)N[C@@H](Cc2ccccc2)C(=O)N2CCC[C@H]2C1=O: PAMPA -5.22 (log10 cm/s)
- CC(C)C[C@@H]1NC(=O)[C@@H](C)NC(=O)[C@H]2CCCN2C(=O)[C@H](Cc2ccccc2)NC(=O)CN(Cc2ccccc2)C(=O)[C@H]2CCCN2C(=O)[C@H](CC(C)C)NC1=O: PAMPA -5.53 (log10 cm/s)
- CC(C)C[C@H]1NC(=O)[C@@H](C)N(C)C(=O)[C@H]2CCCN2C(=O)[C@H](Cc2ccccc2)NC(=O)[C@H](CC(C)C)N(C)C(=O)[C@@H]2CCCN2C(=O)C[C@H](Cc2ccccc2)NC1=O: PAMPA -5.92 (log10 cm/s)
- CC(C)C[C@@H]1NC(=O)[C@H](C)N(C)C(=O)[C@H](Cc2ccccc2)NC(=O)[C@@H](CC(C)C)NC(=O)[C@@H]2CCCN2C(=O)[C@H](CC(C)C)N(C)C1=O: PAMPA -6.00 (log10 cm/s)
- CC(C)C[C@@H]1NC(=O)C[C@H](Cc2ccccc2)NC(=O)[C@@H]2CCCN2C(=O)[C@H](Cc2ccccc2)NC(=O)CN(Cc2ccccc2)C(=O)[C@H]2CCCN2C(=O)[C@@H](CC(C)C)N(C)C1=O: PAMPA -5.63 (log10 cm/s)
- CC(C)C[C@@H]1NC(=O)[C@@H]2CCCN2C(=O)C[C@H](Cc2ccccc2)NC(=O)[C@@H](CC(C)C)NC(=O)[C@H](C)NC(=O)[C@H]2CCCN2C(=O)[C@H](Cc2ccccc2)NC1=O: PAMPA -6.89 (log10 cm/s)
- CC(C)C[C@@H]1C(=O)N(C)[C@H](CC(C)C)C(=O)N2CCC[C@@H]2C(=O)N(C)[C@@H](CC(C)C)C(=O)N[C@@H](Cc2ccccc2)C(=O)N2CCC[C@@H]2C(=O)N[C@@H](C)C(=O)N1C: PAMPA -4.79 (log10 cm/s)
- CC(C)C[C@@H]1NC(=O)[C@H](CC(C)C)N(C)C(=O)[C@@H](C)N(C)C(=O)[C@H]2CCCN2C(=O)[C@H](Cc2ccccc2)NC(=O)CN(Cc2ccccc2)C(=O)[C@H]2CCCN2C1=O: PAMPA -5.74 (log10 cm/s)
- CC(C)C[C@@H]1NC(=O)C[C@H](Cc2ccccc2)NC(=O)[C@H]2CCCN2C(=O)[C@H](Cc2ccccc2)NC(=O)[C@@H](CC(C)C)NC(=O)[C@@H]2CCCN2C(=O)CN(Cc2ccccc2)C1=O: PAMPA -5.68 (log10 cm/s)
- CCCN1CC(=O)N[C@H](CC(C)C)C(=O)N[C@@H](Cc2ccccc2)CC(=O)N2CCC[C@H]2C(=O)N[C@@H](CC(C)C)C(=O)N[C@@H](Cc2ccccc2)C(=O)N2CCC[C@H]2C1=O: PAMPA -6.22 (log10 cm/s)
- CC(C)C[C@@H]1C(=O)N[C@@H](Cc2ccccc2)CC(=O)N2CCC[C@H]2C(=O)N[C@H](CC(C)C)C(=O)N[C@@H](Cc2ccccc2)C(=O)N(C)[C@H](C)C(=O)N1C: PAMPA -5.29 (log10 cm/s)
- CC(C)C[C@@H]1NC(=O)[C@@H](CC(C)C)NC(=O)C[C@H](Cc2ccccc2)NC(=O)[C@H](Cc2ccccc2)NC(=O)CN(Cc2ccccc2)C(=O)[C@H]2CCCN2C1=O: PAMPA -5.74 (log10 cm/s)
- CC(C)C[C@@H]1NC(=O)[C@H]2CCCN2C(=O)[C@H](CC(C)C)N(C)C(=O)[C@H](CC(C)C)NC(=O)[C@@H](C)NC(=O)[C@H](Cc2ccccc2)NC1=O: PAMPA -5.16 (log10 cm/s)
- CCCN1CC(=O)N[C@@H](CC(C)C)C(=O)N[C@@H](Cc2ccccc2)CC(=O)N2CCC[C@@H]2C(=O)N[C@@H](CC(C)C)C(=O)N[C@@H](Cc2ccccc2)C(=O)N2CCC[C@H]2C1=O: PAMPA -6.81 (log10 cm/s)
- CC(C)C[C@@H]1C(=O)N[C@@H](Cc2ccccc2)C(=O)N2CCC[C@@H]2C(=O)N(C)[C@H](C)C(=O)N(C)[C@@H](CC(C)C)C(=O)N[C@@H](Cc2ccccc2)CC(=O)N2CCC[C@@H]2C(=O)N1C: PAMPA -5.79 (log10 cm/s)
- CC(C)C[C@@H]1C(=O)N[C@@H](Cc2ccccc2)C(=O)N2CCC[C@H]2C(=O)N[C@@H](Cc2ccccc2)CC(=O)N(Cc2ccccc2)CC(=O)N[C@H](CC(C)C)C(=O)N2CCC[C@H]2C(=O)N1C: PAMPA -5.81 (log10 cm/s)
- CC(C)C[C@H]1C(=O)N(Cc2ccccc2)CC(=O)N2CCC[C@H]2C(=O)N(C)[C@@H](CC(C)C)C(=O)N[C@@H](Cc2ccccc2)C(=O)N2CCC[C@H]2C(=O)N[C@H](C)C(=O)N1C: PAMPA -6.15 (log10 cm/s)

3 of these entries, quoted again:

- CC(C)C[C@@H]1NC(=O)[C@@H](CC(C)C)NC(=O)C[C@H](Cc2ccccc2)NC(=O)[C@H](Cc2ccccc2)NC(=O)CN(Cc2ccccc2)C(=O)[C@H]2CCCN2C1=O: PAMPA -5.74 (log10 cm/s)
- CCCN1CC(=O)N[C@@H](CC(C)C)C(=O)N[C@@H](Cc2ccccc2)CC(=O)N2CCC[C@@H]2C(=O)N[C@@H](CC(C)C)C(=O)N[C@@H](Cc2ccccc2)C(=O)N2CCC[C@H]2C1=O: PAMPA -6.81 (log10 cm/s)
- CC(C)C[C@@H]1C(=O)N(C)[C@H](CC(C)C)C(=O)N2CCC[C@@H]2C(=O)N(C)[C@@H](CC(C)C)C(=O)N[C@@H](Cc2ccccc2)C(=O)N2CCC[C@@H]2C(=O)N[C@@H](C)C(=O)N1C: PAMPA -4.79 (log10 cm/s)